Tests used:
LC3B = biological target: T1, LC3B (Homo sapiens, UniProt Q9GZQ8); test: Fluorescence polarization binding of CF-labelled LIR peptides to purified LC3B; conditions: CF-labelled peptide 2.5 µM (25 µL) + LC3B 0.2–330 µM (25 µL), HEPES buffer 50 mM pH 7.2, 50 mM NaCl, 2 mM DTE, one site-specific binding fit, three independent replications, read-out: Kd (dissociation constant) for LC3B
T1 construct: His6 (N, cleaved yes); MBP (N, cleaved yes); made in house; host or cells: E. coli BL21-codonplus (DE3)-RIL
Procedure: Binding experiments were done in a black 384-microwell plate. The CF-labelled peptides and purified LC3B protein were dissolved in a HEPES buffer. Each CF-labelled peptide in a volume of 25 µL at a concentration of 2.5 µM was combined with 25 µL of LC3B at a concentration range from 0.2–330 µM. The fluorescent polarization was measured with the excitation and emission wavelengths of […], respectively. The obtained polarization data were corrected by subtraction of the peptide alone (blank). The dissociation constant (Kd) was quantified using a nonlinear curve fitting the site-specific binding on GraphPad Prism 5.0 for Windows (GraphPad Software, La Jolla, CA, USA). Experiments were performed in three independent replications.

[1] = biological target: LC3B protein (microtubule-associated protein light chain 3B), purified, tags removed (UniProt Q9GZQ8); test: FP

Row | Kd (LC3B) [µM] | Kd [1] [µM] | Molecule
1 | 3.72 ± 0.17 | – | CC(C)C[C@H](NC(=O)[C@H](CC(C)C)NC(=O)[C@H](CC(C)C)NC(=O)[C@H](CO)NC(=O)[C@H](Cc1c[nH]c2ccccc12)NC(=O)[C@H](CCCCN)NC(=O)[C@H](CC(=O)O)NC(=O)CNC(=O)[C@H](CC(=O)O)NC(=O)[C@H](CC(=O)O)NC(=O)[C@H](CC(=O)O)NC(=O)[C@H](C)NC(=O)c1ccc2c(c1)C(=O)OC21c2ccc(O)cc2Oc2cc(O)ccc21)C(=O)N[C@@H](CC(N)=O)C(=O)NCC(=O)N[C@@H](CCCNC(=N)N)C(=O)N[C@@H](CC(=O)O)C(N)=O [LIR3]
2 | 43 ± 1 | – | CC(C)C[C@H](NC(=O)[C@H](C)NC(=O)[C@H](CC(C)C)NC(=O)[C@H](CO)NC(=O)[C@H](Cc1c[nH]c2ccccc12)NC(=O)[C@H](CCCCN)NC(=O)[C@H](CC(=O)O)NC(=O)CNC(=O)[C@H](CC(=O)O)NC(=O)[C@H](CC(=O)O)NC(=O)[C@H](CC(=O)O)NC(=O)[C@H](C)NC(=O)c1ccc2c(c1)C(=O)OC21c2ccc(O)cc2Oc2cc(O)ccc21)C(=O)N[C@@H](CC(N)=O)C(=O)NCC(=O)N[C@@H](CCCNC(=N)N)C(=O)N[C@@H](CC(=O)O)C(N)=O [LIR3^L1455A]
3 | 12.9 ± 0.9 | – | CC(C)C[C@H](NC(=O)[C@H](CC(C)C)NC(=O)[C@H](CC(C)C)NC(=O)[C@H](COP(=O)(O)O)NC(=O)[C@H](Cc1c[nH]c2ccccc12)NC(=O)[C@H](CCCCN)NC(=O)[C@H](CC(=O)O)NC(=O)CNC(=O)[C@H](CC(=O)O)NC(=O)[C@H](CC(=O)O)NC(=O)[C@H](CC(=O)O)NC(=O)[C@H](C)NC(=O)c1ccc2c(c1)C(=O)OC21c2ccc(O)cc2Oc2cc(O)ccc21)C(=O)N[C@@H](CC(N)=O)C(=O)NCC(=O)N[C@@H](CCCNC(=N)N)C(=O)N[C@@H](CC(=O)O)C(N)=O [LIR3^S1453-PO4]
4 | 5.13 ± 0.34 | – | CC(C)C[C@H](NC(=O)[C@H](C)NC(=O)[C@H](Cc1c[nH]c2ccccc12)NC(=O)[C@H](CCCCN)NC(=O)[C@H](CC(=O)O)NC(=O)CNC(=O)[C@H](CC(=O)O)NC(=O)[C@H](CC(=O)O)NC(=O)[C@H](CC(=O)O)NC(=O)[C@H](C)NC(=O)c1ccc2c(c1)C(=O)OC21c2ccc(O)cc2Oc2cc(O)ccc21)C(=O)N[C@@H](CC(C)C)C(=O)N[C@@H](CC(C)C)C(=O)N[C@@H](CC(N)=O)C(=O)NCC(=O)N[C@@H](CCCNC(=N)N)C(=O)N[C@@H](CC(=O)O)C(N)=O [LIR3^S1453A]
5 | – | 5.13 | LIR3 peptide of ATP7B with S1453A, CF-labelled (from UniProt P35670)
